The other results are listed elsewhere or left out. Measured potencies and affinities stand elsewhere. Calls of active or inactive are those of the source. Cut-off read from the data, not from the text of the source: active = activation above about 50% (passing the limit was not always enough); inactive = the rest.
biological target: Kappa-type opioid receptor (Homo sapiens) (UniProt P41145); assay: kappa opioid receptor activators – cell-based, luminescence, uHTS, primary screen (AID 1777); conditions: KOR beta-arrestin recruitment, at 10 µM, stronger effect = higher value

Protein sequences, listed by entry. Tags and fused reporters are not part of them. Lines headed by an entry give the natural chain unless they say otherwise; changes in a name come on top.
UniProt P41145: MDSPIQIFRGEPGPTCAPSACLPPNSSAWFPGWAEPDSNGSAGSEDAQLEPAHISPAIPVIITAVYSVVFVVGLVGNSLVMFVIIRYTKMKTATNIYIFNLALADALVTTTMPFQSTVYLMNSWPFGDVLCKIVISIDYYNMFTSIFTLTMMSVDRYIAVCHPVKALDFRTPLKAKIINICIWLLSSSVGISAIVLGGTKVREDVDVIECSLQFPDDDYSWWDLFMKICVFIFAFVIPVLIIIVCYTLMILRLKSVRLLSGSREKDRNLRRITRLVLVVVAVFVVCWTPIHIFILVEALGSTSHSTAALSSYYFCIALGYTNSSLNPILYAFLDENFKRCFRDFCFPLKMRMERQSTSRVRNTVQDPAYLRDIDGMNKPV

Q: How did the activation turn out when `Cc1cccc(OCC(O)Cn2c(=N)n(CCN3CCOCC3)c3ccccc32)c1` (stereo not given) was run?
A: inactive: -7.8%

Q: `O=C(CSc1nc2ccccc2n1CC(=O)N1CCCC1)NCc1ccc2c(c1)OCO2` was tested. Which activation did it give?
A: inactive: -8.9%

Q: `Cc1cc(SC(NC(=O)c2ccc(F)cc2)C(Cl)(Cl)Cl)ncn1` (stereo not given) was tested. Which activation did it give?
A: inactive: 0.5%

Q: `O=[N+]([O-])c1cc(C(F)(F)F)ccc1NC1CCN(Cc2ccccc2)CC1` was tested. Which activation did it give?
A: inactive: 4.9%

Q: How did the activation turn out when `CC(C)C[C@H](NC(=O)N1CCn2c1nc1ccccc12)C(=O)NCC1CCCO1` (stereo not given in full) was run?
A: inactive: 0.3%

Q: Which activation does the source give for `O=[N+]([O-])c1ncn(CCn2ncnc2[N+](=O)[O-])n1` here?
A: inactive: -0.4%

Q: How did the activation turn out when `Cn1c(=O)c2ncn(CC(=O)Nc3nc(-c4ccc(Cl)cc4)cs3)c2n(C)c1=O` was run?
A: inactive: 2.5%

Q: Which activation does the source give for `CCCn1c(=O)[nH]c(=O)c2c1nc(-c1ccc(OC(F)F)cc1)n2CCN1CCOCC1` here?
A: inactive: -1%

Q: With `CC(C)(C)NC(=O)Cn1c(SCC(=O)N2CCCCCC2)nc2ccccc21` as the compound, how does the activation read?
A: inactive: 19.7%

Q: For `CSCC[C@H](NC(=O)N1CCn2c1nc1ccccc12)C(=O)NCc1ccco1`, which activation is on record?
A: inactive: -3.6%

Q: `Cc1ccc2c(c1)C1CN(C)CCC1N2C(=O)Nc1cccc(C(F)(F)F)c1` (stereo not given) was tested. Which activation did it give?
A: inactive: 1.6%

Q: `Cn1c(=O)c2c(ncn2CC(=O)Nc2ccc(N3CCOCC3)cc2)n(C)c1=O` was tested. Which activation did it give?
A: inactive: 7.7%

Q: Which activation does the source give for `CSc1nc2ccccc2n1CC(=O)N1CCCCC1` here?
A: inactive: -4.4%

Q: For `CC(C)OC(=O)c1ccc(NC(=O)Cn2c(-c3nonc3N)nc3ccccc32)cc1`, which activation is on record?
A: inactive: -1.8%

Q: With `C/C(=N\NC(=O)Cn1c(-c2ccccn2)nc2ccccc21)c1ccccc1` as the compound, how does the activation read?
A: inactive: -7%

Q: How did the activation turn out when `O=[N+]([O-])c1ccc2c(c1)nc1n2CCN(CC2CCCO2)C1` (stereo not given) was run?
A: inactive: -3.7%

Q: For `C/C(=N\NC(=O)Cn1cnc2ccccc21)c1cccs1`, which activation is on record?
A: inactive: -5.6%

Q: `CN(C)C(=O)Cn1c(=O)n(S(=O)(=O)c2ccccc2)c2ccccc21` was tested. Which activation did it give?
A: inactive: -2.8%

Q: `c1ccc(CN2CCC(Nc3ncnc4sccc34)CC2)cc1` was tested. Which activation did it give?
A: inactive: -5.1%

Q: How did the activation turn out when `CCCCc1nc2ccccc2n1CC(=O)NN` was run?
A: inactive: 9%

Q: `CC(C)(C)C(=O)NC(Sc1ccncn1)C(Cl)(Cl)Cl` (stereo not given) was tested. Which activation did it give?
A: inactive: 5.6%

Q: `CSCC[C@H](NC(=O)N1CCn2c1nc1ccccc12)C(=O)N[C@@H](C(=O)O)c1ccccc1` was tested. Which activation did it give?
A: inactive: -3.6%

Q: Which activation does the source give for `Cn1c(=O)c2c(ncn2CC(=O)NC(C)(C)C)n(C)c1=O` here?
A: inactive: 6.9%

Q: With `CCN(Cc1ccccc1)C(=O)Cn1c(C(C)O)nc2ccccc21` (stereo not given) as the compound, how does the activation read?
A: inactive: 3%

Q: `COC(=O)c1ccc(N2C(=O)CC(N3CCC(n4c(=O)[nH]c5ccccc54)CC3)C2=O)cc1` (stereo not given) was tested. Which activation did it give?
A: inactive: 2%

Q: Which activation does the source give for `COc1cccc(CNC(=O)CCNC(=O)N2CCn3c2nc2ccccc23)c1` here?
A: inactive: 3.1%

Q: Which activation does the source give for `COc1cccc(NC(=O)Cn2c(-c3cncs3)nc3ccccc32)c1` here?
A: inactive: -3.5%

Q: For `O=C1CCC(=O)N1c1ccc(NC2CCN(Cc3ccccc3)CC2)c([N+](=O)[O-])c1`, which activation is on record?
A: inactive: -4.3%

Q: For `O=C(c1ccccc1Br)N1CCn2c1nc1ccccc12`, which activation is on record?
A: inactive: 0.6%

Q: With `O=C(O)CNc1ccc([As](=O)(O)O)cc1` as the compound, how does the activation read?
A: inactive: 5.8%

Q: For `Cc1cccc(NC(=O)Cn2c(/C=C/c3ccccc3)nc3ccccc32)c1`, which activation is on record?
A: inactive: -3.9%

Q: Which activation does the source give for `Cc1nn(CC(=O)Nc2ccc3c(c2)nc2n3CCN(C3CCCCC3)C2)c(=O)c2ccccc12` here?
A: inactive: 5%

Q: For `O=[N+]([O-])c1ccc(NC2CCN(Cc3ccccc3)CC2)c2ccncc12`, which activation is on record?
A: inactive: -4%

Q: With `Cc1noc(C)c1S(=O)(=O)N(CC(=O)N1CCn2c1nc1ccccc12)c1ccc(C(C)C)cc1` as the compound, how does the activation read?
A: inactive: -10.1%

Q: With `CCOC(=O)N1CCN(c2c(NC3CCN(Cc4ccccc4)CC3)c(=O)c2=O)CC1` as the compound, how does the activation read?
A: inactive: -2.5%

Q: Which activation does the source give for `CC(C)Sc1nc2ccccc2n1CC(N)=O` here?
A: inactive: 1.7%

Q: With `O=C(Cn1cnc2ccccc21)N1CCN(S(=O)(=O)c2ccccc2)CC1` as the compound, how does the activation read?
A: inactive: 9.1%

Q: With `CN(C)C1(c2nnnn2-c2ccc(Cl)cc2)CCCCC1` as the compound, how does the activation read?
A: inactive: -5.5%

Q: With `O=[N+]([O-])c1cccc(NC2=NCC(CBr)S2)c1` (stereo not given) as the compound, how does the activation read?
A: inactive: 2.1%

Q: Which activation does the source give for `COc1ccc(Cc2nc3ccccc3n2CC(=O)N/N=C/c2ccc(O)cc2)cc1OC` here?
A: inactive: -2.8%

Q: With `CCN(CC)S(=O)(=O)c1ccc(NC2CCN(Cc3ccccc3)CC2)nc1` as the compound, how does the activation read?
A: inactive: 1.9%

Q: `O=S(=O)(Cc1ccccc1)N1CCn2c(nc3ccccc32)C1` was tested. Which activation did it give?
A: inactive: -8.2%

Q: Which activation does the source give for `CC1CCCN(Cc2nc3c(c(=O)n(C)c(=O)n3C)n2CC(N)=O)C1` (stereo not given) here?
A: inactive: 1.8%

Q: How did the activation turn out when `CN1CCN(c2nc3c(c(=O)n(C)c(=O)n3C)n2CC(N)=O)CC1` was run?
A: inactive: -1.8%

Q: `CC(C)[C@H](NC(=O)N1CCn2c1nc1ccccc12)C(=O)N[C@H](C(=O)O)c1ccccc1` was tested. Which activation did it give?
A: inactive: 3.3%

Q: Which activation does the source give for `O=C(Cn1cnc2ccccc21)NCCCN1CCOCC1` here?
A: inactive: 2.3%

Q: How did the activation turn out when `CC(C)[C@H](NC(=O)N1CCn2c1nc1ccccc12)C(=O)NCc1ccc2c(c1)OCO2` was run?
A: inactive: -3.2%

Q: Which activation does the source give for `Cn1c(=O)c2ncn(CC(=O)NC3CCCCCC3)c2n(C)c1=O` here?
A: inactive: 20.5%

Q: How did the activation turn out when `Cn1c(=O)n(Cc2ccc(Cl)cc2)c(=O)c2c1nc1n2CCN1Cc1ccco1` was run?
A: inactive: -0.4%

Q: `O=[N+]([O-])c1ccccc1NC1CCN(Cc2ccccc2)CC1` was tested. Which activation did it give?
A: inactive: 4.1%

Q: How did the activation turn out when `Cc1ccc2c(c1)C1CN(C)CCC1N2C(=O)Nc1ccc(Cl)cc1` (stereo not given) was run?
A: inactive: -8.7%

Q: `Cc1ccc2c(c1)C1CN(C)CCC1N2C(=O)c1cccnc1Cl` (stereo not given) was tested. Which activation did it give?
A: inactive: 2.5%

Q: For `COc1ccc(N2CCn3c2nc2c3c(=O)n(CCc3ccccc3)c(=O)n2C)cc1`, which activation is on record?
A: inactive: -3.2%

Q: `N#CCC(=O)N/N=C\c1ccccc1OC/C=C/c1ccccc1` was tested. Which activation did it give?
A: inactive: 1.8%

Q: With `Cc1ccc2c(c1)C1CN(C)CCC1N2CC(=O)N(C)c1ccccc1` (stereo not given) as the compound, how does the activation read?
A: inactive: -6.7%

Q: How did the activation turn out when `CCOC(=O)Nc1ccc2c(c1)nc1n2CCN(CCOC)C1` was run?
A: inactive: 2%

Q: For `COc1ccc(Cc2nnc(NC(=O)Cn3cnc4c3c(=O)n(C)c(=O)n4C)s2)cc1`, which activation is on record?
A: inactive: -2.5%

Q: For `CCN(CC)CCn1c(=N)n(CC(O)c2ccco2)c2ccccc21` (stereo not given), which activation is on record?
A: inactive: -1.5%

Q: With `Cn1c(=O)c2c(nc(NCCc3ccccc3)n2CC(=O)NCCc2ccccc2)n(C)c1=O` as the compound, how does the activation read?
A: inactive: -1.2%

Q: `Cc1cc(NC(=O)CSc2nc3ccccc3n2CC(=O)N2CCCCC2)no1` was tested. Which activation did it give?
A: inactive: -1.6%

Q: For `Cc1ccc(-c2csc(N3CCN(c4cc5c(cc4Cl)nc(C)n5CCN4CCCCC4)CC3)n2)cc1`, which activation is on record?
A: inactive: 0.4%

Q: For `O=C(CCCN1CCC2(CC1)C(=O)NCN2c1ccccc1)c1ccc(F)cc1`, which activation is on record?
A: inactive: 2.6%

Q: Which activation does the source give for `COc1cc(NC(=O)Cn2c(-c3cncs3)nc3ccccc32)cc(OC)c1OC` here?
A: inactive: 2%

Q: With `Cn1c(=O)c2c(nc(CN3CCN(c4ccc(F)cc4)CC3)n2CCN2CCOCC2)n(C)c1=O` as the compound, how does the activation read?
A: inactive: 7.3%

Q: With `CC1CN(Cc2nc3c(c(=O)[nH]c(=O)n3C)n2CC(N)=O)CC(C)O1` (stereo not given) as the compound, how does the activation read?
A: inactive: 1.5%

Q: Which activation does the source give for `Cn1c(=O)[nH]c(=O)c2c1nc(NC1CCCCC1)n2CC(=O)NC1CCCCC1` here?
A: inactive: -0.8%

Q: For `Cc1nc2cc(C(F)(F)F)ccc2n1C1CCN(Cc2nnnn2Cc2ccc3c(c2)OCO3)CC1`, which activation is on record?
A: inactive: -3.3%

Q: Which activation does the source give for `Cn1c(=O)[nH]c(=O)c2c1nc(CN1CCN(c3ccccc3F)CC1)n2CC(N)=O` here?
A: inactive: 3.3%

Q: How did the activation turn out when `Cc1ccc(CNC(=O)CCNC(=O)N2CCn3c2nc2ccccc23)cc1` was run?
A: inactive: 0.5%

Q: How did the activation turn out when `c1ccc(CN2CCC3(CC2)Nc2ccccc2S3)cc1` was run?
A: inactive: -3.5%

Q: How did the activation turn out when `COc1ccc(CNc2nc3ccccc3n2CCN2CCCCC2)c(OC)c1` was run?
A: inactive: 2.5%

Q: With `COc1ccc(N2CCn3c2nc2c3c(=O)n(CCCc3ccccc3)c(=O)n2C)c(OC)c1` as the compound, how does the activation read?
A: inactive: -0.5%

Q: Which activation does the source give for `COc1ccccc1CNc1nc2ccccc2n1CCN1CCCCC1` here?
A: inactive: 1.6%

Q: `CCSc1nnc(NC(=O)Cn2cnc3c2c(=O)n(C)c(=O)n3C)s1` was tested. Which activation did it give?
A: inactive: 0.7%

Q: With `C=CCc1cccc(CNc2nc3ccccc3n2CCN2CCOCC2)c1O` as the compound, how does the activation read?
A: inactive: -1.4%

Q: `O=C(Nc1cc([As](=O)(O)O)ccc1O)c1ccccc1` was tested. Which activation did it give?
A: inactive: 4.4%

Q: With `Cn1c(=O)n(CC(=O)Nc2ccccc2)c2ccccc21` as the compound, how does the activation read?
A: inactive: 1%

Q: Which activation does the source give for `O=C(c1ccco1)N1CCn2c1nc1ccccc12` here?
A: inactive: -3.8%

Q: `COc1ccc(Cc2nc3ccccc3n2CC(=O)N/N=C/c2ccccc2)cc1OC` was tested. Which activation did it give?
A: inactive: -0.9%

Q: Which activation does the source give for `COc1ccccc1NS(=O)(=O)c1cc(NC(=O)Cn2cnc3c2c(=O)n(C)c(=O)n3C)ccc1C` here?
A: inactive: -1.2%

Q: With `Cn1c(=O)[nH]c(=O)c2c1nc(SCc1ccccc1Cl)n2CC(N)=O` as the compound, how does the activation read?
A: inactive: 3.3%

Q: Which activation does the source give for `COc1ccc(CNC(=O)Cn2cnc3c(=O)n(C)c(=O)n(C)c32)cc1` here?
A: inactive: 2.6%

Q: How did the activation turn out when `Cc1ccc2c(c1)[C@@H]1CN(C)CC[C@@H]1N2S(=O)(=O)c1ccc(F)cc1` was run?
A: inactive: 6.6%

Q: How did the activation turn out when `CCOC(=O)c1c(NC(=O)Cn2c(C)nc3ccccc32)sc2c1CCC2` was run?
A: inactive: 1.8%

Q: For `COc1ccc(N2CCn3c2nc2c3c(=O)n(CCCc3ccccc3)c(=O)n2C)cc1`, which activation is on record?
A: inactive: 5.6%

Q: How did the activation turn out when `CC(C)C[C@H](NC(=O)N1CCn2c1nc1ccccc12)C(=O)NC1CCCCC1` was run?
A: inactive: 2%

Q: With `O=C(Nc1ccc2c(c1)nc1n2CCN(Cc2ccccc2)C1)NC1CCCCC1` as the compound, how does the activation read?
A: inactive: -4%

Q: How did the activation turn out when `CCN(/C(=N/P(=O)(N1CCOCC1)N1CCOCC1)N1CCOCC1)c1ccc(OC)cc1` was run?
A: inactive: -3.5%

Q: For `COc1ccc(/C([O-])=C(/C(=S)Nc2ccc(C)c(C)c2)n2c[n+](C)c3ccccc32)cc1OC`, which activation is on record?
A: inactive: 0.5%

Q: For `Cc1ccc(-c2nnc(N3CCN(C(=O)Cn4c(=O)n(C)c5ccccc54)CC3)c3ccccc23)cc1`, which activation is on record?
A: inactive: -2%

Source: PubChem BioAssay AID1777 (Sanford-Burnham Center for Chemical Genomics, 2009)
